# scFv variants of Ab-91 (heavy chain) against a SARS-CoV-2 spike peptide

From the AlphaSeq antibody data of Engelhart et al. 2022 (doi:10.1038/s41597-022-01779-4), copy in the FLAb collection.

The target is the same throughout: PDVDLGDISGINAS, from the HR2 region of SARS-CoV-2 spike.

Parent: Ab-91, a human scFv built as VL, a (GGGGS)3 linker, VH. Only the CDRs of the heavy chain vary.
VL: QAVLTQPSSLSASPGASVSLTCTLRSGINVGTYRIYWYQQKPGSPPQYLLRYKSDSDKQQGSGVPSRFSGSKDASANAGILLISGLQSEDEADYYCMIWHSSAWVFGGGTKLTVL
VH: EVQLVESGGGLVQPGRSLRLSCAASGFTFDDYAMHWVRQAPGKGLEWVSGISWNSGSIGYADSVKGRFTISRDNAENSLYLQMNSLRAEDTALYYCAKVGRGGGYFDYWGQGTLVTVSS

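The parent was found by panning a naive human phage display library on the peptide. The library (AAYL51) carries one to three amino acid substitutions per variant, with no insertions or deletions. In AlphaSeq, yeast of one mating type display the scFv and yeast of the other type display the target. Binding brings cells together so that they mate, and sequencing counts the barcode pairs among the diploids. A regression on co-assayed BCL2-family reference pairs converts the normalised counts of each replicate to an apparent Kd. Mating was done three times.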

Changes read parent residue, position, new residue, counted from the first residue of the VH shown.
The read-out is the apparent dissociation constant on a log10 scale (nM): the lower, the stronger.
Averages over replicates are reported, and they cover detected replicates only.
An entry "no signal" has no value in the source: the pair was not observed among the diploids in any replicate. This suggests poor binding but is not conclusive.
Empty control strains, which show no peptide, gave a signal in 21% of pairings with library AAYL51; the median was 4.54 and 95% of these signals were weaker than 3.26. No background was subtracted.
In this assay the parent's reference entry averaged 1.86; its copy inside this library read 0.88.

For S52E R101N G103C, the assay gave 1.53 (3 of 3 replicates).
For S52W G59T F106M, the assay gave 4.17 (2 of 3 replicates).
For W53Q I58G Y105S, the assay gave no signal (0 of 3 replicates).
For G59N F106K, the assay gave 4.66 (2 of 3 replicates).
For G26D I58M, the assay gave 3.96 (2 of 3 replicates).
For G26S G56C Y60T, the assay gave 2.91 (1 of 3 replicates).
For Y60S K65N G102A, the assay gave 5.34 (2 of 3 replicates).
For F27W Y60R G103V, the assay gave no signal (0 of 3 replicates).
For M34I S52E Y60W, the assay gave no signal (0 of 3 replicates).
For G26V Y105K D107S, the assay gave no signal (0 of 3 replicates).
For S52T K65N D107Q, the assay gave 4.82 (3 of 3 replicates).
For H35F G56N, the assay gave 4.98 (2 of 3 replicates).
For G56V G59L D62M, the assay gave no signal (0 of 3 replicates).
For T28S S55D F106S, the assay gave 4.76 (3 of 3 replicates).
For F27D Y32L S63E, the assay gave 5.35 (1 of 3 replicates).
For A61R D62Y Y105D, the assay gave no signal (0 of 3 replicates).
For N54E D62I D107S, the assay gave no signal (0 of 3 replicates).
For D30A G103I, the assay gave no signal (0 of 3 replicates).
For D31V G100D, the assay gave 3.70 (1 of 3 replicates).
For Y32I A33V G104Y, the assay gave no signal (0 of 3 replicates).
For A33G W53P A61I, the assay gave 0.31 (3 of 3 replicates).
For I51H G56T G104N, the assay gave 4.36 (1 of 3 replicates).
For F27S Y32S A33E, the assay gave no signal (0 of 3 replicates).
For A33F K65T F106M, the assay gave no signal (0 of 3 replicates).
For D31C G102K F106S, the assay gave 1.62 (3 of 3 replicates).
For G26L N54K G104A, the assay gave 2.88 (2 of 3 replicates).
For G56I A61H, the assay gave 2.65 (3 of 3 replicates).
For G50I I58S Y108H, the assay gave no signal (0 of 3 replicates).
For F29N A33E I58Q, the assay gave no signal (0 of 3 replicates).
For H35G A61E K65G, the assay gave 5.31 (2 of 3 replicates).
For S57Y Y105C, the assay gave 4.27 (1 of 3 replicates).
For T28A A33L G56W, the assay gave no signal (0 of 3 replicates).
For F27S V64D F106K, the assay gave 5.34 (2 of 3 replicates).
For T28V H35A R101H, the assay gave 3.30 (1 of 3 replicates).
For S55F K65E Y108E, the assay gave no signal (0 of 3 replicates).
For A33Y G59T, the assay gave 4.62 (2 of 3 replicates).
For M34F Y60F A61S, the assay gave 4.08 (2 of 3 replicates).
For G56S Y105S F106M, the assay gave no signal (0 of 3 replicates).
For G59K A61D G103Y, the assay gave 5.10 (1 of 3 replicates).
For Y32T G50E I51C, the assay gave no signal (0 of 3 replicates).
For T28S Y32G G102Q, the assay gave 5.24 (2 of 3 replicates).
For Y32I I51L, the assay gave no signal (0 of 3 replicates).
For D31Y M34I S55M, the assay gave 5.08 (1 of 3 replicates).
For A33M K65V Y105E, the assay gave no signal (0 of 3 replicates).
For T28A A61C G100Q, the assay gave no signal (0 of 3 replicates).
For I58S A61S S63V, the assay gave 1.08 (3 of 3 replicates).
For S52V I58T Y108T, the assay gave 4.45 (2 of 3 replicates).
For F29C R101E G102Y, the assay gave 4.26 (2 of 3 replicates).
For G26Q S52R D107I, the assay gave 4.91 (1 of 3 replicates).
For G56S S63Q V64P, the assay gave no signal (0 of 3 replicates).
For A33T G102R Y105V, the assay gave 4.25 (1 of 3 replicates).
For Y32N S57H F106P, the assay gave 2.89 (3 of 3 replicates).

The opening 8 entries, copied out:

Variant S52E R101N G103C gave 1.53 (3 of 3 replicates).
Variant S52W G59T F106M gave 4.17 (2 of 3 replicates).
Variant W53Q I58G Y105S gave no signal (0 of 3 replicates).
Variant G59N F106K gave 4.66 (2 of 3 replicates).
Variant G26D I58M gave 3.96 (2 of 3 replicates).
Variant G26S G56C Y60T gave 2.91 (1 of 3 replicates).
Variant Y60S K65N G102A gave 5.34 (2 of 3 replicates).
Variant F27W Y60R G103V gave no signal (0 of 3 replicates).